# Experimental data from US12325710B2, “Substituted 1,2,3,4,5,6-hexahydroazepino[4,5-b]indoles for treating brain disorders” (priority 2019, dated 2025).
# Experiments:
# [1] = Solubility in 0.9% saline; details: saline (0.9%) based vehicles with co-solvents/additives, water
# [2] = system: larval zebrafish expressing GCaMP5; assay: Seizurogenic potential in larval zebrafish expressing GCaMP5; format: in vivo; details: 200 μM; PTZ positive control
# Description: Transgenic larval zebrafish expressing GCaMP5G were immobilized in agarose, treated with compounds, and imaged over time. The known seizure-inducing compound PTZ was used as a positive control. All compounds were treated at 200 μM (n=2 per condition).
# larval zebrafish [3] = assay: Larval zebrafish movement activity during a battery of light and acoustic stimuli; details: 1 h treatment, concentration-response
# Source text: Stimuli applied over time are indicated under the heatmaps. Colors indicate bright LED light of respective colors, black traces represent the waveforms of acoustic stimuli, and gray vertical lines indicate physical tapping as secondary acoustic stimuli.
# Response is […] proportional to classification accuracy; 0-20% indicates no ability and 100% indicates perfect classification. […] The solid line denotes the median and the shading denotes a 95th percentile confidence interval calculated by bootstrap. N=8 wells/condition (64 animals/condition).
# larval zebrafish [4] = assay: Heart rate and arrhythmia in immobilized larval zebrafish
# zebrafish = assay: Zebrafish developmental toxicity assay; details: 100 μM; 2 and 5 dpf
substance,measurement,setting,value
ibogaine [reference compound],solubility (in words),[1],lack of water solubility
same,solubility (in words),[1]; listed as ibogaine hydrochloride,limited solubility
same,seizure induction (neural activity),[2],Neither ibogaine nor TBG produced excessive neural activity
same,"behavioral phenotype with increasing concentration versus vehicle and lethal control (eugenol, 100 μM)",larval zebrafish [3],"more phenotypically distinct from the vehicle control, while more closely resembling the lethal control"
same,heart rate (bradycardia),larval zebrafish [4],visually noticeable decrease in heart rate
same,"malformations, mortality, non-viable fish",zebrafish,significantly increased malformations and mortality
